A selection: hits, their analogues and other compounds. The true share with any hit is near 0.24%.
PTAP TSG101 blk – blocks PTAP/TSG101 interaction to inhibit HIV-1 budding; Q99816; Fluorescence polarization, FITC-PTAP peptide / Tsg101 binding; Potency, µM (titrated, usually from 115 µM), for the others: top-dose activity change, negative = inhibition, actives largely listed as inhibitors; 340,000 tested, under 10 active; AID 493005; active = well fitted inhibition curve with a large enough effect in the main read-out, with a control signal flat, not every such curve was filed as active; inconclusive = small, poorly fitted or top-dose-only effect, or effect the other way, or a change in a side signal; inactive = no such curve, though single readings can be large or run the other way; note: potency is the fitted concentration of half-maximal effect; % of control where 0% means no effect
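Tsg101 binding domain (10 uM final) was mixed with compound and a FITC-labeled PTAP peptide (50 nM final) in HEPES pH 7.5 buffer with NaCl, Tween 20, EDTA and TCEP; fluorescence polarization was read after 20 min at r.t.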
PTHR1 ag – agonists of human PTHR1 parathyroid hormone receptor | hit rate 0.075% among 410,000 | HEK293 GP2 PTHR1 cells, GloSensor cAMP luminescence, 1 h | Potency, µM (doses to about 115 µM), for inactives: at the highest dose activation, usual class: activators | Q03431; note: potency is the fitted concentration of half-maximal effect; nearly all actives have a fitted effect of over 55% in size
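HEK-293-derived GP2 cells expressing PTHR1 and a GloSensor cAMP reporter, 3,000/well, plated overnight, given luciferin plus IBMX (each 0.5 mM as added) for 1 h at 37 °C, then compound for 1 h at 37 °C. Luminescence was read after 15 min at room temperature.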
GLS inhibitor – blocks human kidney-isoform glutaminase activity. Potency, µM (top dose mostly 45.5 µM), for inactives: at the highest dose activity change, negative = inhibition, usual class: inhibitors. O94925. hit rate 0.21% among 410,000. GLS enzymatic activity, qHTS titration; note: potency is the fitted concentration of half-maximal effect; % is set by controls: 0 for no effect and ±100 for the full control effect
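hKGA; 45 mM KH2PO4 pH 8.2 + 0.02% Tween-20; cpd via pin tool; 1 mM Gln soln; GluOx/HRP/Amplex Red; RT 30 min; fluor. t0 & final.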
Eya2 inh – Eya2 (human) phosphatase inhibition | O00167 | recombinant Eya2, OMFP fluorescence dephosphorylation (OMFP is methylfluorescein phosphate) | Potency, µM (series often up to 76.9 µM), without a hit: at the highest dose activity, negative = inhibition, most hits filed as inhibitors | hit rate 0.006% among 330,000; note: potency is the fitted concentration of half-maximal effect; % is set by controls: 0 for no effect and ±100 for the full control effect
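Eya2 protein (added as 0.2 uM solution) was preincubated with compound for 10 min at ambient temperature in 50 mM HEPES pH 7.5, 50 mM NaCl, 5 uM MgCl2, 0.05% BSA, 1 mM DTT. OMFP (added at 50 uM) then reacted 10 min; fluorescence read at 485/525 nm.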
USP2a block – USP2a (human) protease inhibition | AID 463254 | O75604 | USP2 core, Ub-CHOP2 coupled fluorogenic reporter, 485/531 | hit rate 0.01% among 330,000 | Potency, µM (highest dose often 38.3 µM), inactives show at the top dose activity change, negative = inhibition, hits mostly inhibitors;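 note: potency is the fitted concentration of half-maximal effect; plate controls were DMSO wells for no effect and full inhibition by NEM control for full effect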
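Cell-free coupled assay: 10nM USP2 core preincubated 30min RT with compound in Tris-HCl pH 8.0/CaCl2/CHAPS buffer, then 25nM Ub-CHOP2 and 25nM reporter substrate; fluorescence (Ex 485/Em 531) read after 60min RT, normalized to NEM inhibition, concentration-response curves fitted.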
miR-21 reporter – raises the signal of a miR-21 reporter | HeLa miR-21 FLuc reporter, luciferase, 48 h | Potency, µM (highest dose often 38.3 µM), without a hit: at the top dose reporter change, positive = more light | 340,000 tested, under 10 active; active = well fitted rising curve with a large enough effect; inconclusive = small, poorly fitted or top-dose-only effect; inactive = no such curve, though single readings can be large or run the other way;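 note: % of control where 0% means no effect; miR-21 action dims this reporter so a rising signal means less miR-21 action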
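HeLa cells endogenously expressing miR-21, stably carrying CMV-driven firefly luciferase with a downstream miR-21 binding site, 2000 cells/well. Titrations up to approximately 40 uM, 48 hours; luciferase luminescence read.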
Numbers without * were called inactive; ! = not confirmed by another sample; [ ] = dose if it differs, or a comment. Unless noted, calls come from the whole dose curve; as a rule, active = well fitted curve in the direction sought with a large enough effect; inconclusive = small, poorly fitted or top-dose-only effect, or another doubt; inactive = no such curve, though single readings can be large; an effect the other way counts as inactive or inconclusive.

O=C1CC(NC2CCN(C(=O)c3cccc(F)c3)CC2)C(=O)N1 (configuration not stated) was read as PTAP TSG101 blk -6%, PTHR1 ag inactive, GLS inhibitor 11µM*, Eya2 inh -12%, USP2a block 0% and miR-21 reporter 4%.
`Nc1ccc(O)c([N+](=O)[O-])c1` gave PTAP TSG101 blk 0%, PTHR1 ag -10%, GLS inhibitor 40µM*!, Eya2 inh -5% and USP2a block -9%.
CC(C)=CCC/C(C)=C\CC/C(C)=C\CC/C(C)=C\CC1=C(C)C(=O)c2ccccc2C1=O was read as GLS inhibitor -12%.
COC(=O)c1ccccc1NC(=O)c1ncoc1-c1ccco1 was read as PTHR1 ag 10%, GLS inhibitor -18% and miR-21 reporter 2%.
C[C@@H]1O[C@@]2(CS1)CN1CCC2CC1 was read as GLS inhibitor 0%.
`O=C(N/N=C/c1ccc(O)c(O)c1)c1cccc(S(=O)(=O)N2CCCCC2)c1` gave PTAP TSG101 blk -1%, PTHR1 ag inactive, GLS inhibitor 7.1µM*, Eya2 inh 0%, USP2a block -1% and miR-21 reporter -6%.
O=C(NN=Cc1ccc(F)cc1)c1cccc(S(=O)(=O)N2CCCC2)c1 was read as PTAP TSG101 blk -2%, PTHR1 ag -3%, GLS inhibitor 5%, Eya2 inh -3% and USP2a block 4%.
Screening O=c1c2ccccc2n2c(-c3ccc(Cl)cc3)nnc2n1CCc1ccccc1 returned PTHR1 ag -19%, GLS inhibitor 5% and miR-21 reporter -9%.
CC(CSC(=O)c1ccccc1)C(=O)N1CC(Sc2ccccc2)CC1C(=O)O (configuration not stated) was read as GLS inhibitor 3%.
Screening CC(c1ccc(Cl)cc1)n1c(-c2ccc3ccccc3n2)n[nH]c1=S (configuration not stated) returned PTAP TSG101 blk -1%, PTHR1 ag -53%[57.5 µM], GLS inhibitor inconclusive, Eya2 inh 1%, USP2a block -1% and miR-21 reporter 1%.
CC(c1ccc(F)cc1)n1c(-c2ccc3ccccc3n2)n[nH]c1=S (configuration not stated) was read as PTAP TSG101 blk -7%, PTHR1 ag -18%[57.5 µM], GLS inhibitor 13µM*, Eya2 inh -20%, USP2a block 3% and miR-21 reporter -10%.
Screening CSC1CCCCC1(O)CSc1nc2ccccc2o1 (configuration not stated) returned PTAP TSG101 blk 4%, PTHR1 ag -7%[57.5 µM], GLS inhibitor 13µM*, Eya2 inh 3%, USP2a block 0% and miR-21 reporter -13%.
For CCc1sc(C(C2C(=O)CC(C)(C)CC2=O)C2C(=O)CC(C)(C)CC2=O)cc1[N+](=O)[O-] the results were PTAP TSG101 blk -2%, PTHR1 ag -34%, GLS inhibitor 7.1µM*, Eya2 inh 13%, USP2a block 2% and miR-21 reporter 15%.
CCOc1ccc2nc(Cl)c(C3CC(c4ccc(C)cc4)=NN3C(=O)CCCC(=O)O)cc2c1 (configuration not stated) was read as PTHR1 ag -16%, GLS inhibitor 1% and miR-21 reporter 0%.
Nc1nc2ccc(Br)cc2s1 was read as PTHR1 ag inactive and GLS inhibitor 1%.
For Nc1nc2ccc(O)cc2s1 the results were PTAP TSG101 blk -3%, PTHR1 ag inactive, GLS inhibitor 13µM*, Eya2 inh 2%, USP2a block 0% and miR-21 reporter -6%.
Screening O=C(Cn1cnnn1)N[C@@H]1C(=O)N2C(C(=O)O)=C(CSc3nncs3)CS[C@H]12 returned GLS inhibitor -5%.
For S=c1[nH]c(-c2ccccc2)cn1/N=C/c1ccncc1 the results were PTAP TSG101 blk -7%, PTHR1 ag 18%, GLS inhibitor 10µM*, Eya2 inh -2%, USP2a block 0% and miR-21 reporter -14%.
Screening NC[C@@H]1O[C@@H](O[C@H]2[C@@H](O)[C@H](O[C@@H]3[C@@H](O)[C@@H](N)C[C@H](N)[C@H]3O[C@H]3O[C@H](CN)[C@@H](O)[C@@H](O)[C@H]3N)O[C@H]2CO)[C@H](N)[C@@H](O)[C@@H]1O returned GLS inhibitor -7%.
Screening CCOC(=O)N1CCN(c2c(F)cc3[nH]c(=S)[nH]c3c2Br)CC1 returned PTAP TSG101 blk 0%, PTHR1 ag 33%[57.5 µM], GLS inhibitor 7.1µM*, Eya2 inh -23%, USP2a block -3% and miR-21 reporter 9%.
COC(=O)c1ccc2c(=O)n(CCCCCC(=O)NCCc3ccccc3)c(=O)[nH]c2c1 was read as PTHR1 ag inactive, GLS inhibitor 11µM* and miR-21 reporter 9%.
Screening O=C(CCCCCn1c(=O)[nH]c2ccccc2c1=O)NCc1ccccc1 returned PTHR1 ag -19%, GLS inhibitor 8.9µM* and miR-21 reporter -4%.
O=C(CCCCCn1c(=O)[nH]c2ccccc2c1=O)NCc1ccc(Cl)cc1 was read as PTHR1 ag 0%, GLS inhibitor inconclusive and miR-21 reporter 3%.
`CCOC(=O)c1cc(-c2ccc(OC)cc2)n(CCC(=O)NC2CCCCC2)c1C` gave PTHR1 ag -2%, GLS inhibitor -10% and miR-21 reporter 7%.
Oc1cccc(/C=N/NC(=S)Nc2cccnc2)c1O was read as PTAP TSG101 blk -1%, PTHR1 ag -13%, GLS inhibitor 10µM*, Eya2 inh 2%, USP2a block 0% and miR-21 reporter -6%.
Oc1ccc(/C=N/NC(=S)Nc2cccnc2)c(O)c1 was read as PTAP TSG101 blk 1%, PTHR1 ag inactive, GLS inhibitor 20%, Eya2 inh -3%, USP2a block 4% and miR-21 reporter -8%.
`Oc1ccc(/C=N/NC(=S)Nc2cccnc2)c(O)c1O` gave PTAP TSG101 blk 2%, PTHR1 ag inactive, GLS inhibitor 4.5µM*, Eya2 inh -3%, USP2a block 1% and miR-21 reporter 0%.
CCc1ccccc1NC(=O)Nc1ccc2c(c1)N(CC)C(=O)c1ccccc1S2 was read as PTHR1 ag -8%, GLS inhibitor 8% and miR-21 reporter -18%.

Four structures from above, ordered by molecular weight, low to high.
Oc1ccc(/C=N/NC(=S)Nc2cccnc2)c(O)c1 was read as PTAP TSG101 blk 1%, PTHR1 ag inactive, GLS inhibitor 20%, Eya2 inh -3%, USP2a block 4% and miR-21 reporter -8%.
Screening CCOC(=O)N1CCN(c2c(F)cc3[nH]c(=S)[nH]c3c2Br)CC1 returned PTAP TSG101 blk 0%, PTHR1 ag 33%[57.5 µM], GLS inhibitor 7.1µM*, Eya2 inh -23%, USP2a block -3% and miR-21 reporter 9%.
CCc1ccccc1NC(=O)Nc1ccc2c(c1)N(CC)C(=O)c1ccccc1S2 was read as PTHR1 ag -8%, GLS inhibitor 8% and miR-21 reporter -18%.
Screening NC[C@@H]1O[C@@H](O[C@H]2[C@@H](O)[C@H](O[C@@H]3[C@@H](O)[C@@H](N)C[C@H](N)[C@H]3O[C@H]3O[C@H](CN)[C@@H](O)[C@@H](O)[C@H]3N)O[C@H]2CO)[C@H](N)[C@@H](O)[C@@H]1O returned GLS inhibitor -7%.

Source: PubChem BioAssay (National Center for Advancing Translational Sciences (NCATS))
